Values of other authors, collected in patent publication US20050255047A1, “Smoke composition” (published 2005).

Test system: insects

In the case of `Cc1c(COC(=O)[C@@H]2[C@H](/C=C(\Cl)C(F)(F)F)C2(C)C)cccc1-c1ccccc1`, the “conventional usage dose for a smoke” value is listed as 9 mg/m^3.
